Literature values as cited in patent US11730740B2, “Laureth-4 containing topical formulations” (ARCUTIS BIOTHERAPEUTICS, INC., priority 2020, dated 2023).

Details: 10% w/w surfactant in white petrolatum with 10% salicylic acid and 10% DMSO; 5.0 grams on 6.4×12.7 cm^2 skin; 8 hr

- percutaneous absorption of salicylic acid: increased significantly
Substance: polyoxyl 8 stearate
